For 1 compound, Ki results are on record in ChEMBL document CHEMBL1135424, “Beta-aryl-succinic acid hydroxamates as dual inhibitors of matrix metalloproteinases and tumor necrosis factor alpha converting enzyme” (J Med Chem, 2002).

Amino acid sequences for entries named in this document (tags omitted). A change or cut given only in a name is not applied to a line headed by its entry.
UniProt P78536: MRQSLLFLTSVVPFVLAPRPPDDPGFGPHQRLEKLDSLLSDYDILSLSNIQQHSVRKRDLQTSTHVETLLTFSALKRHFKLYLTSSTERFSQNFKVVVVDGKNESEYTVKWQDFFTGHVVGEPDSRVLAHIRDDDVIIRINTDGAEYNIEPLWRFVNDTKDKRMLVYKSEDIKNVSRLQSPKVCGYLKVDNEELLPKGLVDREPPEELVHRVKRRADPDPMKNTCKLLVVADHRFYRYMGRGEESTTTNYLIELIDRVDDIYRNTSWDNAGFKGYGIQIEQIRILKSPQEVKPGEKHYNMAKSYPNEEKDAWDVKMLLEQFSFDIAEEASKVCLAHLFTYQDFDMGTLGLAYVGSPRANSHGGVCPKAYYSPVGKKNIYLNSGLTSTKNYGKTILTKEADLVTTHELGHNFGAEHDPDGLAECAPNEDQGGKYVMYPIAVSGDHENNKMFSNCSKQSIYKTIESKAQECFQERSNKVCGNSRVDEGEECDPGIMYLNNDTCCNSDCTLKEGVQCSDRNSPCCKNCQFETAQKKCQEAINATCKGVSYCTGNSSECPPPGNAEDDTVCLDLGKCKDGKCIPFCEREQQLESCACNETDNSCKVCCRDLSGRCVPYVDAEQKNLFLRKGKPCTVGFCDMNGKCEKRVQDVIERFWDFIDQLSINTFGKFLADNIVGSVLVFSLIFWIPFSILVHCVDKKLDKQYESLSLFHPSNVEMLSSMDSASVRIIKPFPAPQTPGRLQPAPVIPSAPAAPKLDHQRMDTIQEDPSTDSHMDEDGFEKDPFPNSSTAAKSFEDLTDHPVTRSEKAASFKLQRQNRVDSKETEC

This assay addresses Disintegrin and metalloproteinase domain-containing protein 17 (Homo sapiens, UniProt P78536). The experiment in a line: Inhibitory potency against Tumor necrosis factor alpha converting enzyme (TACE).

Turning to `CNC(=O)[C@@H](NC(=O)[C@H](CC(C)C)[C@H](O)C(=O)NO)C(C)(C)C`, the inhibition constant Ki (as a rule, a measure of affinity in units of concentration, obtained from inhibition or displacement) came out at 6.3 nM.
